From PMC4291348, “A Continuous Enzyme-Coupled Assay for Triphosphohydrolase Activity of HIV-1 Restriction Factor SAMHD1” (Antimicrobial Agents and Chemotherapy, 2014) come the findings set out here.

In general, kcat refers to the number of substrate molecules converted per active site and unit of time at saturation.

Substrate in data set [1]: Cc1cn([C@H]2C[C@H](O)[C@@H](COP(=O)(O)OP(=O)(O)OP(=O)(O)O)O2)c(=O)[nH]c1=O
Kind of data set: Continuous enzyme-coupled (Ppx1 / MDCC-PBP) real-time assay of SAMHD1 triphosphohydrolase activity. It is filed as biochemical, human. Conditions: other: GTP activator 0.2 mM, 25°C. The procedure: (§1) The steady-state kinetics of SAMHD1 were determined by a coupled-enzyme assay using Ppx1 and a fluorescent phosphate biosensor, MDCC-PBP. The reactions were set up in 20-μl volumes in 384-well low-protein-binding microplates (Corning, USA), and the time-dependent fluorescence signal was measured using a Tecan Saffire^2 multiwell plate reader (Männedorf, Switzerland). Solutions containing SAMHD1 (residues 115 to 626), Ppx1, MDCC-PBP, an activator, and an inhibitor (if present) were incubated for 5 min at 25°C before the reaction was initiated by the addition of the substrate. The final concentrations were 100 nM SAMHD1, 10 nM Ppx1, and 40 μM MDCC-PBP. […] The fluorescence intensity was recorded at 430 nm for excitation and 465 nm for emission wavelengths, with a 7-nm slit width, at 8- to 10-s time intervals over a period of 10 to 30 min. The standard curves were obtained by incubating 40 μM MDCC-PBP with different concentrations of phosphate (Pi) and measuring the fluorescence, as discussed above. The fluorescence response was linear and in the range of 0 to 20 μM Pi.
(§2) The steady-state rates were obtained from the time courses of Pi formation by linear regression of the data points in the linear phase of the reaction. […] Data from the three different experiments were analyzed by a least-squares fit using the equation for competitive inhibition. […]

Substrate in data set [2]: Nc1nc(Cl)nc2c1ncn2[C@@H]1O[C@H](COP(=O)(O)OP(=O)(O)OP(=O)(O)O)[C@@H](O)[C@@H]1F
The data set is described as above. Type of data set: biochemical, human. As to conditions: other: GTP activator 0.2 mM, 25°C. Here is the method:
as §1, §2

B1: SAMHD1 (residues 115 to 626) (Homo sapiens) (protein)
chain: MKVINDPIHGHIELHPLLVRIIDTPQFQRLRYIKQLGGGYYVFPGASHNRFEHSLGVGYLAGCLVHALGEKQPELQISERDVLCVQIAGLCHDLGHGPFSHMFDGRFIPLARPEVKWTHEQGSVMMFEHLINSNGIKPVMEQYGLIPEEDICFIKEQIVGPLESPVEDSLWPYKGRPENKSFLYEIVSNKRNGIDVDKWDYFARDCHHLGIQNNFDYKRFIKFARVCEVDNELRICARDKEVGNLYDMFHTRNSLHRRAYQHKVGNIIDTMITDAFLKADDYIEITGAGGKKYRISTAIDDMEAYTKLTDNIFLEILYSTDPKLKDAREILKQIEYRNLFKYVGETQPTGQIKIKREDYESLPKEVASAKPKVLLDVKLKAEDFIVDVINMDYGMQEKNPIDHVSFYCKTAPNRAIRITKNQVSQLLPEKFAEQLIRVYCKKVDRKSLYAARQYFVQWCADRNFTKPQDGDVIAPLITPQKKEWNDSTSVQNPTRLREASKSRVQLFKDDPM
notes: The catalytic domain of SAMHD1 (residues 115 to 626) was expressed and purified as previously described; made in house
For B1, the figures for the kcat in data set [1] and in data set [2] were 1.32 ± 0.07 s⁻¹ and 0.91 ± 0.07 s⁻¹, respectively.
